# Publication PMC4633044, “Quorum Sensing Peptides Selectively Penetrate the Blood-Brain Barrier” (PLoS ONE, 2015)
# Tests used:
# [1] = test system: mouse brain (blood-brain barrier); conditions: in vivo
# [2] = test system: mouse brain capillaries / parenchyma; conditions: in vivo, iv
# [3] = test system: mouse brain (blood-brain barrier); conditions: in vivo; remark: listed apart in the source
# [4] = mouse, in vivo, iv
substance,measurement,setting,value
"Bovine Serum Albumin [BSA, reference compound]","Brain distribution volume, V0",[1],14.59 ± 1.23 µL/g
same,Kin,[1]; iv,0.12 ± 0.08 µL/g/min
same,Kin (text),[1]; iv,0.12 µL/g/min
same,Capillary fraction,[2],19.4%
same,Parenchymal fraction,[2],80.6%
same,kout,[3],0.01 ± 0.03 min⁻¹
same,Tissue distribution (in words),[4],clear liver distribution
same,BBB influx classification,blood-brain barrier,very low influx
